Values of other authors as cited in patent US20260126455A1, “Methods and Dosing Regimens for Preventing or Delaying Onset of Alzheimer's Disease and Other Forms of Dementia and Mild Cognitive Impairment” (priority 2020, published 2026).

Test system: ischemic brain
Settings: rat, in vivo; cited from earlier work

Question: For VEGF, which BBB leakage is on record?
Answer: The BBB leakage was “exacerbated BBB leakage”.
